# Measured values from publication PMC6586034 (Clinical Pharmacology in Drug Development, 2018).
# Entries after “also recorded” stand apart in the source; their conditions may differ.
# Type: in vivo, human
# Settings: once-daily verinurad 10 mg or 2.5 mg with febuxostat 40 mg or 80 mg
compound,measurement,value
"Cc1nc(-c2ccc(OCC(C)C)c(C#N)c2)sc1C(=O)O [febuxostat, Febuxostat, reference compound]",Effect of verinurad on febuxostat PK / systemic exposure,no effect; also recorded: unaffected; also recorded: did not affect
